Results from US9863701B2, “Compositions and methods for atmospheric spray freeze drying” (Aerosol Therapeutics, LLC, priority 2013, dated 2018).
Where two headings read alike, the source gives them in different places.

Tests used:
[1] = Moisture content of powder after ASFD run, second generation equipment; type: physicochemical; details: spray gas 5 SCFM, drying 20 SCFM
[2] = 10% BSA, 3.5 hours
[3] = 10% BSA, drying 20 SCFM, 3 hours

moisture content ([1]; 0.5% Dextran 500 and 10.5% sucrose aqueous solution, 25 ml, after ten hours) [%]	Substance	moisture content ([2]; 20° F., high flow run (25 SCFM full duration)) [%]	moisture content ([2]; 20° F., low flow run (20 SCFM first hour then 25 SCFM)) [%]	moisture content ([2]; 30° F., high flow run (25 SCFM full duration)) [%]	moisture content ([2]; 30° F., low flow run (20 SCFM first hour then 25 SCFM)) [%]	moisture content ([3]; sprayed at higher gas flow rate (10 SCFM)) [%]	moisture content ([3]; sprayed at lower gas flow rate (5 SCFM)) [%]	moisture content ([1]; 10% BSA aqueous solution, 50 ml, after three hours) [%]
5.16	Dextran 500	–	–	–	–	–	–	–
–	Bovine Serum Albumin [BSA]	9.6	6.2	32.6	5.5	26.1	1.1	1.25
